Values quoted from earlier work, collected in patent publication US20260337190A1, “CRYSTAL FORM OF PYRIDINOPYRIMIDINONE COMPOUND, ACID SALT THEREOF, CRYSTAL FORM OF ACID SALT THEREOF, AND USE” (Wuhan Humanwell Innovative Drug Research and Development …, priority 2022, published 2026).

Assays:
SOS1 = conditions: cited from earlier work
cancer cells = conditions: cited from earlier work

Q: Which “formation of KRAS-GTP” value (SOS1) does the source give for COc1cc2nc(C)nc(N[C@H](C)c3cc(N)cc(C(F)(F)F)c3)c2cc1O[C@H]1CCOC1 [BI-3406] here?
A: The value was “reduce the formation of KRAS-GTP”.

Q: And the “interaction of SOS1 with KRAS” value (SOS1)?
A: The value was “prevent its interaction with KRAS”.

Q: And the “KRAS-driven proliferation of various cancer cells” value (cancer cells)?
A: The value was “inhibit KRAS-driven proliferation of various cancer cells”.
